Test results from patent US7241770B2 (priority 2003, dated 2007).

The chains behind the UniProt entries cited, without tags or fusion partners.
UniProt P35372, whole entry: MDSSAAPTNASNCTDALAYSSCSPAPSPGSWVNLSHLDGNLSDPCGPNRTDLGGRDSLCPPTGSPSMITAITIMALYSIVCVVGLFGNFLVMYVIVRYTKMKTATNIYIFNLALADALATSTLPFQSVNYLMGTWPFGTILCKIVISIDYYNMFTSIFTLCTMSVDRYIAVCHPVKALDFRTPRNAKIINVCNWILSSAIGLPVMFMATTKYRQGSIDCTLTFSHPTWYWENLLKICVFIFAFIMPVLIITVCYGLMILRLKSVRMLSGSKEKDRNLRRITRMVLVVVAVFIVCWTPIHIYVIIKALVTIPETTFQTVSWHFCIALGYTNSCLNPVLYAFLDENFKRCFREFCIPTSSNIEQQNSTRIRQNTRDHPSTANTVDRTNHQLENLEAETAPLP
UniProt P41146, whole entry: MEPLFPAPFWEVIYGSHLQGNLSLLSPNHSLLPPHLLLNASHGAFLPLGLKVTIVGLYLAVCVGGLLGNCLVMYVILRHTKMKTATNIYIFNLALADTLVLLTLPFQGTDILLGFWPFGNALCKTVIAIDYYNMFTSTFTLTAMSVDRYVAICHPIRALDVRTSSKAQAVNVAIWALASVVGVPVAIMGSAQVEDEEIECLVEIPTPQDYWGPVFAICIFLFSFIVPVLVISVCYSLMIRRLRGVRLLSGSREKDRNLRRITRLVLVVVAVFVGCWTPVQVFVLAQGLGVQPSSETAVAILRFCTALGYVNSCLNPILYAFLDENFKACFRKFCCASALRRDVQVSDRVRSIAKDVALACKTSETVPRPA

What was measured:
[1] = molecular target: human μ-opiate receptor (Homo sapiens, UniProt P35372); assay: Affinity for μ-opiate receptors, [3H]-DAMGO receptor binding assay on CHO cell membranes; conditions: human μ-opiate receptor in CHO membranes
[2] = molecular target: human ORL1 receptor (Homo sapiens, UniProt P41146); assay: Affinity for human ORL1 receptors, [3H]-nociceptin receptor binding assay on CHO cell membranes; conditions: human ORL1 receptor in CHO membranes

## CC1(C)C2CCC(CCN3CCC4(CC3)C(=O)NCN4c3ccccc3)C1C2 (centres unmarked) [Example 1, 8-[2-(6,6-Dimethyl-bicyclo[3.1.1]hept-2-yl)-ethyl]-1-phenyl-1,3,8-triaza-spiro[4.5]decan-4-one]
[1]
  affinity μ-opiate pKi: 7.7
[2]
  affinity ORL1 pKi: 9.3
